# Publication PMC12758957 (Thrombosis and Haemostasis, 2025)
# Where two headings read alike, the source gives them in different places.
# Key:
# Assay type in all cases: biochemical
# [1] = biological target: prothrombinase-activated wild-type prothrombin (Homo sapiens, UniProt P00734); test: Inhibition of pNAPEP-0238 peptidyl substrate conversion in a purified system
# Description: (§1) Prothrombin variants were activated to thrombin by prothrombinase immediately prior to analyses. Reaction mixtures of prothrombin variant (1 μM) and preassembled prothrombinase (2 nM FXa, 2 nM FV-810, and 50 μM phospholipid TGT, final concentrations) were incubated for 30 minutes at 25°C in assay buffer, upon which the reaction was quenched in dilution buffer supplemented with 50 mM EDTA.
# [2] = biological target: prothrombinase-activated prothrombin-I174F (Homo sapiens, UniProt P00734, I542F); test: as above
# Description: as §1
# [3] = biological target: prothrombinase-activated prothrombin-I174A (Homo sapiens, UniProt P00734, I542A); test: as above
# Description: as §1
# [4] = biological target: prothrombin-I174F (Homo sapiens, UniProt P00734, I542F); test: Thrombin generation in supplemented prothrombin-depleted plasma, inhibition by direct thrombin inhibitors; conditions: prothrombin-depleted plasma + 180 µg/mL prothrombin-I174F; 37°C; read-out: IC50, thrombin peak height
# [5] = biological target: prothrombin-I174A (Homo sapiens, UniProt P00734, I542A); test: as above; conditions: prothrombin-depleted plasma + 180 µg/mL prothrombin-I174A; 37°C; read-out: IC50, thrombin peak height
# [6] = biological target: prothrombinase-activated prothrombin-KL3 (Homo sapiens, UniProt P00734)
# Description: as §1
# [7] = biological target: wild-type prothrombin (Homo sapiens, UniProt P00734); test: Thrombin generation (calibrated automated thrombography) in supplemented prothrombin-depleted plasma, inhibition by direct thrombin inhibitors
compound,measurement,setting,value
CC1CNc2c(cccc2S(=O)(=O)N[C@@H](CCCNC(=N)N)C(=O)N2CC[C@@H](C)C[C@@H]2C(=O)O)C1 (stereo partly drawn) [Argatroban],IC50,"[1]; 5 nM prothrombinase-activated WT, 50 μM pNAPEP-0238",8 ± 2 nM
same,Ki,"[1]; WT, Cheng-Prusoff equation",3 nM
same,IC50,"[2]; 5 nM prothrombinase-activated I174F, 50 μM pNAPEP-0238",26 ± 3 nM
same,Ki,"[2]; I174F, Cheng-Prusoff equation",13 nM
same,IC50,"[3]; 5 nM prothrombinase-activated I174A, 50 μM pNAPEP-0238",30 ± 4 nM
same,Ki,"[3]; I174A, Cheng-Prusoff equation",13 nM
same,IC50,[4],86 ± 11 nM
same,IC50,[5],76 ± 9 nM
same,Ki,"[6]; KL3, Cheng-Prusoff equation",17 nM
same,IC50,"[6]; read-out: IC50, pNAPEP-0238 conversion, 5 nM prothrombinase-activated KL3, 50 μM pNAPEP-0238",29 ± 4 nM
same,IC50,"[7]; prothrombin-depleted plasma + 180 µg/mL wild-type prothrombin, peak height normalized to no inhibitor, 37°C, read-out: IC50, thrombin peak height",69 ± 7 nM
same,IC50,"[7]; prothrombin-depleted plasma supplemented with wild-type prothrombin, read-out: half-maximum inhibition of thrombin peak",70 nM
